Measurements published in PubChem BioAssay AID504326 (The Scripps Research Institute Molecular Screening Center, 2011).
The list shows a part of the results, in another mix than the full data. Active and inactive are the calls of the source. Rule as the data show it: active = activation above about 18%; inactive = the rest.

By UniProt entry, the sequences of proteins in these tests, tags left out.
UniProt P35372, whole entry, looked up: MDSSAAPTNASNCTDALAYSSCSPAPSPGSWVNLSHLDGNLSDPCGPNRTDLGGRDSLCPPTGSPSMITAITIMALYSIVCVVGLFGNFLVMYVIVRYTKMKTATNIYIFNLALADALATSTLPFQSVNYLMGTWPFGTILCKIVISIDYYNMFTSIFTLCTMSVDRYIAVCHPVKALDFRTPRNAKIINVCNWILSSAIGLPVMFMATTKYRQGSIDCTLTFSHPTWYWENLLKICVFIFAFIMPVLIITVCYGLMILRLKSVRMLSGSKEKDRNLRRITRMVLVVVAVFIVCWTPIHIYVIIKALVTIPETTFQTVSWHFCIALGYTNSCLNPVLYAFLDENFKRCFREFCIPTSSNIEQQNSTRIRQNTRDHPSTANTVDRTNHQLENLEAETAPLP
UniProt P41143, whole entry, looked up: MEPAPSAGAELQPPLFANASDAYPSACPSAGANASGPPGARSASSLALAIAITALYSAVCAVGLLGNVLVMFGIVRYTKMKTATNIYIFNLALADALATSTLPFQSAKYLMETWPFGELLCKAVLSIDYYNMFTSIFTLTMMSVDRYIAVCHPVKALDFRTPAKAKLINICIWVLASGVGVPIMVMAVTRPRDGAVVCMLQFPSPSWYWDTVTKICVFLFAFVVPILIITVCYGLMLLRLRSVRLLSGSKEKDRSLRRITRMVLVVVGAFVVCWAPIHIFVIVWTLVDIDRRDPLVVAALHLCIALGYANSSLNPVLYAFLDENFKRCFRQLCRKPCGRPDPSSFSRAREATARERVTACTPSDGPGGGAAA

The molecules below were run against Mu-type opioid receptor (Homo sapiens) + Delta-type opioid receptor (Homo sapiens) (UniProt P35372+P41143) (assay: agonists of OPRM1-OPRD1 heterodimerization, primary screen, cell-based, luminescence (AID 504326;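 also: 0% = vehicle-treated cells and 100% = reference agonist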)). Settings: cells, at 9.3 µM, hits give high values.

SMILES | activation
CCCn1c(=O)[nH]c(=O)c2c1nc(-c1ccc3c(c1)OCCO3)n2CCN1CCOCC1 | inactive: -0.27%
Cc1ccc(/C=N/NC(=O)Cn2cnc3ccccc32)o1 | inactive: -1.37%
CC(C)N(C(=O)Cn1c(-c2ccccc2Cl)nc2ccccc21)c1ccccc1 | inactive: -1.62%
Cn1c(=O)[nH]c(=O)c2c1nc(N1CCCCCC1)n2CCN1CCCCCC1 | inactive: 1.91%
CCOC(=O)c1cccc(NC(=O)Cn2c(CC(=O)NC)nc3ccccc32)c1 | inactive: 0.65%
Cc1ccc(NC(=O)Cn2cnc3c(OCc4ccccc4)ncnc32)cc1C | inactive: 1.26%
CSCC[C@H](NC(=O)N1CCn2c1nc1ccccc12)C(=O)NCc1ccccc1 | inactive: -3.17%
C(=N\c1nc2ccccc2n1CCN1CCCCC1)/c1cccs1 | inactive: -1.08%
COc1cc(I)ccc1[As](=O)(O)O | inactive: -0.02%
c1ccc(CN2CCC(Nc3nc(-c4ccccc4)nc4ccccc34)CC2)cc1 | inactive: 7.49%
CC(O)CNc1nc2ccccc2n1CC(=O)N1CCN(Cc2ccccc2)CC1 (configuration not stated) | inactive: 0.47%
CCCCNc1nc2ccccc2n1CC(=O)Nc1c(C)cccc1CC | inactive: -0.93%
COc1cccc(NC(=O)[C@@H](NC(=O)N2CCn3c2nc2ccccc23)C(C)C)c1 | inactive: -0.35%
O=P1(N(CCCl)CCCl)OCCCN1CCCl (configuration not stated) | inactive: -1.52%
O=P1(N(CCCl)CCCl)Nc2ccccc2N1 | inactive: -2.49%
COc1ccc(CNC(=O)CCNC(=O)N2CCn3c2nc2ccccc23)cc1 | inactive: -2.62%
Cc1cc2ncn(C3CC(=O)N(C)C3=O)c2cc1C (configuration not stated) | inactive: -2.48%
C=CCSc1nnc(NC(=O)Cn2cnc3c2c(=O)n(C)c(=O)n3C)s1 | inactive: 0.37%
Cc1ccc2c(c1)C1CN(C)CCC1N2C(=S)Nc1ccc(Cl)cc1Cl (configuration not stated) | inactive: -1.62%

SMILES | activation
CSc1nc(N)nc2c1ncn2CC(=O)NCCCN1CCCC1=O | inactive: -3.72%
Cn1c(=O)c2c(nc(NCc3ccccc3)n2CC(N)=O)n(C)c1=O | inactive: -2.09%
O=C1C2CCCCC2C(=O)N1c1ccc(NC2CCN(Cc3ccccc3)CC2)c([N+](=O)[O-])c1 (configuration not stated) | inactive: -1.08%
O=C(OC1CN2CCC1CC2)C12CC3CC(CC(C3)C1)C2 (configuration not stated) | inactive: -2.86%
O=C(Cn1cnc2c(NCc3ccccc3)ncnc21)NCCCN1CCCC1=O | inactive: -3.72%
CCn1cc(C(=O)N2CCn3c(nc4ccccc43)C2)c(=O)c2ccc(C)nc21 | inactive: -0.98%
Cn1c(=O)c2c(nc(Cl)n2CC(=O)N2CCCCC2)n(C)c1=O | inactive: -2.44%
Cc1cc(=O)[nH]c(N[N+](=O)[O-])n1 | inactive: 0.49%
c1ccc2c(c1)ncn2CCN1CCCCC1 | inactive: 0.3%
Cn1c(=O)c2c(ncn2CC(=O)Nc2nccs2)n(C)c1=O | inactive: -2.28%
Cc1ccccc1Oc1ccc2c(c1)[C@@H]1C[C@H](N(C)C(=O)c3ccc(C#N)cc3)[C@H]([C@H](C)O)C(=O)N1CC2 | inactive: -0.9%
NC(=O)CC(NC(=O)Cc1ccc(Br)cc1)c1ccc(NC2CCN(Cc3ccccc3)CC2)c([N+](=O)[O-])c1 (configuration not stated) | inactive: 0.34%
O=C(Cn1cnc2ccccc21)NC(c1ccccc1)c1ccccc1 | inactive: -1.19%
NC(=O)CS(=O)(=O)c1nc2ccccc2n1CC(=O)N1CCCCC1 | inactive: -0.84%
Cc1ccc(S(=O)(=O)N2CCCCC2)cc1NC(=O)Cn1cnc2c1c(=O)n(C)c(=O)n2C | inactive: -1.88%
O=C(CCCCCNC(=O)N1CCn2c1nc1ccccc12)N[C@@H](C(=O)O)c1ccccc1 | inactive: -3.96%
Cc1c2c(nc3ccccc13)SC(C(Cl)Cl)C2 (configuration not stated) | inactive: 2.85%
Cc1ccc(NC(=O)Cn2cnc3c(=O)n(C)c(=O)n(C)c32)c(C)c1 | inactive: 0.04%
CCC(=O)Nc1cccc(C(=O)/C=C/c2ccc(F)cc2)c1 | inactive: -0.86%

SMILES | activation
Cc1ccc(Cn2nnnc2CN2CCC(n3nnc4cc(C)ccc43)CC2)cc1 | inactive: 4.87%
Cc1cccc(CSc2nc3ccncc3n2CC(=O)Nc2cc(C)cc(C)c2)c1 | inactive: -0.4%
Cn1c(=O)c2c(nc(CN3CCC(Cc4ccccc4)CC3)n2CCN2CCOCC2)n(C)c1=O | inactive: -0.15%
CC1CCN(C(=O)Cn2cnc3c2c(=O)n(C)c(=O)n3C)c2ccccc2S1 (configuration not stated) | inactive: -1.25%
C[C@H](NC(=O)N1CCn2c1nc1ccccc12)C(=O)NC1CC1 | inactive: -1.08%
O=C(Cn1c(C(F)(F)F)nc2ccccc21)N1CCCC1 | inactive: -1.54%
Cc1ccc(-c2csc(NCCn3c(C)nc4cc(C(F)(F)F)ccc43)n2)cc1 | inactive: 0.04%
COc1cc(NC(=O)Cn2cnc3c(OCc4ccccc4)ncnc32)cc(OC)c1OC | inactive: -0.63%
O=C(CCNC(=O)N1CCn2c1nc1ccccc12)NCc1ccc(F)cc1 | inactive: -1.06%
O=C(OC1CN2CCC1CC2)c1cccc2[nH]cnc12 (configuration not stated) | inactive: -1.4%
C=C(C)Cn1c(=O)c2c(nc3n2CCN3c2cccc(Cl)c2C)n(C)c1=O | inactive: -0.95%
CCN(CC)C(=S)SC(NC=O)C(Cl)(Cl)Cl (configuration not stated) | inactive: 1.09%
O=C(Nc1nc2ccccc2n1CCN1CCOCC1)c1cn(-c2ccccc2)nc1-c1ccccc1 | inactive: -1.87%
O=C(Cn1c2[n+](c3ccc(C(F)(F)F)cc31)CCCCC2)Nc1c(F)cccc1F | inactive: 1.53%
COC(=O)[C@H](CC(C)C)NC(=O)Cn1cnc2c(SC)nc(N)nc21 | inactive: -2.2%
Cn1c(=O)c2c(ncn2CC(=O)Nc2nc(-c3ccccc3Cl)cs2)n(C)c1=O | inactive: 1.28%
CC1c2nc3ccccc3n2C(CC(=O)NCCCN2CCOCC2)C(=O)N1Cc1ccccc1 (configuration not stated) | inactive: -1.72%
COc1ccc(CCNC(=O)[C@@H](NC(=O)N2CCn3c2nc2ccccc23)C(C)C)cc1OC | inactive: -1.03%
O=C(Cn1c(-c2ccccn2)nc2ccccc21)NCCN1CCOCC1 | inactive: 0.21%
